Target: Acetylcholinesterase (Electrophorus electricus, UniProt O42275)
Experiment: Inhibition of Electrophorus electricus (electric eel) AChE using acetylthiocholine iodide as substrate incubated for 15 min prior to substrate addition measured after 30 min by Ellman's spectrophotometric method

Protein sequences, listed by entry. Tags and fused reporters are not part of them. Lines headed by an entry give the natural chain unless they say otherwise; changes in a name come on top.
UniProt O42275: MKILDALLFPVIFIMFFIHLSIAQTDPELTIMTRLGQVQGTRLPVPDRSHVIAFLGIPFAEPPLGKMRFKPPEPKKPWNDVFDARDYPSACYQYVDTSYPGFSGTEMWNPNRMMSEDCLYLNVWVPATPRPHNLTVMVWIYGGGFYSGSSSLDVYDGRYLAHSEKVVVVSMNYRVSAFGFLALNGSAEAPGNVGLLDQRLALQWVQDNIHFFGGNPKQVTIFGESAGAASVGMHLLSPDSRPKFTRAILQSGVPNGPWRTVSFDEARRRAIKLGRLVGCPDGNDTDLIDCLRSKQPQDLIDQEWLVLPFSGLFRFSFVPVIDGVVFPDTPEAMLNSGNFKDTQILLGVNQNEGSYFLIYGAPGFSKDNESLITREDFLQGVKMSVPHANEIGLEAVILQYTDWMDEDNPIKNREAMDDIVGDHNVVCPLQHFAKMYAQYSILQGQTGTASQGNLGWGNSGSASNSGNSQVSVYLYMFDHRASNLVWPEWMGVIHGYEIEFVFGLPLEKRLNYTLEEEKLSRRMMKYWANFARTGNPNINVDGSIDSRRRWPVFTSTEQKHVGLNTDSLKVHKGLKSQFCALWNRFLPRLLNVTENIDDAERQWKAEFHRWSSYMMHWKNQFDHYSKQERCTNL

CNC(=O)Oc1ccc2c(c1)[C@]1(C)CCN(C)[C@@H]1N2C [PHYSOSTIGMINE]
IC50: 123 nM

— ChEMBL document CHEMBL3046656, “Apoptotic effects of some carbazole derivatives on lung carcinoma and glioma cell lines” (Med Chem Res, 2013)
